Test results published in US20090162459A1, “Combination Therapy for Treatment of Patients with Neurological Disorders and Cerebral Infarction” (priority 2006, published 2009).

Tested on: blood coagulation
Assay: Phase IV open-label study NeuroAid®/aspirin interaction in healthy volunteers, 5 coagulation tests
Type: in vivo, human
Details: 11 healthy volunteers per group
Procedure: An open randomized one-day study was conducted on 11 healthy volunteers receiving NeuroAid® treatment (12 capsules per day) and aspirin (ASA 300 mg per day) from day 1 to day 5, and 11 healthy volunteers receiving aspirin alone (300 mg per day) from day 1 to day 5. Blood samples of the subjects were collected before they received treatment and 2 and 8 hours after treatment initiation.

Structure (SMILES): CC(=O)Oc1ccccc1C(=O)O [Aspirin alone, Acetylsalicylic Acid]
- Quick Prothrombine Time, Mean (T + 2 hours): 12.6 s
- Activated Partial Prothrombine Time, Mean (T + 8 hours): 38.2 s
- Quick Prothrombine Time, Mean (T + 8 hours): 12.4 s
